In ChEMBL document CHEMBL4342520, “Discovery, Structure-Activity Relationship, and Biological Activity of Histone-Competitive Inhibitors of Histone Acetyltransferases P300/CBP” (J Med Chem, 2020) one finds inhibition data, which are given here for one molecule.

Sequences of proteins named here, by UniProt entry; tags and fusion partners are left off.
UniProt Q09472, whole entry: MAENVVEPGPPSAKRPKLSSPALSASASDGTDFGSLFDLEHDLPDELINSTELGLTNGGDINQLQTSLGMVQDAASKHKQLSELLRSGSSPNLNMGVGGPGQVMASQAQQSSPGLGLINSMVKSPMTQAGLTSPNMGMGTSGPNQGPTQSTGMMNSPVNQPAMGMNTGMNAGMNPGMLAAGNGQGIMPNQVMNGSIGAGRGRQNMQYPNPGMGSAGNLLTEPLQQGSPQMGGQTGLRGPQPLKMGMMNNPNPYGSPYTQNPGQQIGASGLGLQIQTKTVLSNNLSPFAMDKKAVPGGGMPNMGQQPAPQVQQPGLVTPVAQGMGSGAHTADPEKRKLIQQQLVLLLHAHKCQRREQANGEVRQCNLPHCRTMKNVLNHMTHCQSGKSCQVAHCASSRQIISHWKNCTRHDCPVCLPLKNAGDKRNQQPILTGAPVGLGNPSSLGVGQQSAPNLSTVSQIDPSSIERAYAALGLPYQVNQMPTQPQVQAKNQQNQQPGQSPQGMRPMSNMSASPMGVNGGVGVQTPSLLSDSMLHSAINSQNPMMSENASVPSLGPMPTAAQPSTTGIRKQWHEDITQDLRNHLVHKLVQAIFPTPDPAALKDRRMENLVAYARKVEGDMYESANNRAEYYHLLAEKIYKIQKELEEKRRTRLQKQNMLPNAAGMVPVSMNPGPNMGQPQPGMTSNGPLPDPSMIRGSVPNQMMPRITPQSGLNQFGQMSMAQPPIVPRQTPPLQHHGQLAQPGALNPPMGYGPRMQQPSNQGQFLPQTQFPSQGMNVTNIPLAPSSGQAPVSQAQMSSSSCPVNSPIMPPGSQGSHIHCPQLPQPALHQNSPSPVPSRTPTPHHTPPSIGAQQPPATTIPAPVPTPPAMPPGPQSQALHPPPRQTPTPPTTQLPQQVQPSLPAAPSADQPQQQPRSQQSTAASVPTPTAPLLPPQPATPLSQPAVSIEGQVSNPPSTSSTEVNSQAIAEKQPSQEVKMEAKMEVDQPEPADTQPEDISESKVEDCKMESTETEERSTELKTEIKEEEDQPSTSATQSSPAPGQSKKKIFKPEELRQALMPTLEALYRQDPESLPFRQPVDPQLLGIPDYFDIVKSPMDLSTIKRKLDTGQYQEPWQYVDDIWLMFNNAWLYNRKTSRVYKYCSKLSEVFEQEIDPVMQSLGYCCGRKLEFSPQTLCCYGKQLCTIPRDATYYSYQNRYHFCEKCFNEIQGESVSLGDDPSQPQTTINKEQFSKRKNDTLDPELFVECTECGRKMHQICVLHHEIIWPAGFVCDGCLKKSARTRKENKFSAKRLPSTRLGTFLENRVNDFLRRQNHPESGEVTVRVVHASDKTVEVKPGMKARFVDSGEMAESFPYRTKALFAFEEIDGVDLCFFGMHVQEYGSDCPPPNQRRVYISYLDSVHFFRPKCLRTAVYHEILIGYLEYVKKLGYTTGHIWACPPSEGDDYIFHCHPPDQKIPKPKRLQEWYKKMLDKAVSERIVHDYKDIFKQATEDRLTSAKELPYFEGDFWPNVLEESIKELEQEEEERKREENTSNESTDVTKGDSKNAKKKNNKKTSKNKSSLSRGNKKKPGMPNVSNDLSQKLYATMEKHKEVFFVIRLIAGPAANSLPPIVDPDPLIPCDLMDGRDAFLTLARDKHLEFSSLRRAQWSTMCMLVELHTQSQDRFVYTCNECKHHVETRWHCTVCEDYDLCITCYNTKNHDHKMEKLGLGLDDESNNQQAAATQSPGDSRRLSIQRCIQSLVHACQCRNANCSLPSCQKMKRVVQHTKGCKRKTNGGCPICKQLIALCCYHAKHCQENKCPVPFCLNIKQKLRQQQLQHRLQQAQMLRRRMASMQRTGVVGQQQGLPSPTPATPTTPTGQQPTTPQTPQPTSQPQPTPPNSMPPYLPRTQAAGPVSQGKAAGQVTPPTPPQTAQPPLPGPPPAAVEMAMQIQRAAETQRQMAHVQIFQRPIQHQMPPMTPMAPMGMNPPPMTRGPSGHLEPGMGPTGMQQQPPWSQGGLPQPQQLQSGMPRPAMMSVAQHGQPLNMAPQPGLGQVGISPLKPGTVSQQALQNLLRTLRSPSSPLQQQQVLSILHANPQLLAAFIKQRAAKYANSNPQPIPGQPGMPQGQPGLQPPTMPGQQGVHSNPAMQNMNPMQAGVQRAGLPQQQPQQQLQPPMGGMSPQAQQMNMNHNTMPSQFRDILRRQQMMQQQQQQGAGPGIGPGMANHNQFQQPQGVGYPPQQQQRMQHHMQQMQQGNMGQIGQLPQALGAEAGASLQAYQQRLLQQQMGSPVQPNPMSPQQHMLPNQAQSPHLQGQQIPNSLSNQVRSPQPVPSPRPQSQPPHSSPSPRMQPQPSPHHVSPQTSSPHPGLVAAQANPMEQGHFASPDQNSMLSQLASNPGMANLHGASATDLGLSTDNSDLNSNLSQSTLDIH

The target in the assay is Histone acetyltransferase p300 (Homo sapiens, UniProt Q09472). As to the kind of experiment: Inhibition of His6-tagged p300 HAT domain (unknown origin) assessed as disruption of p300 and Histone H4 (1-21) peptide interaction incubated for 1 hr by Alpha assay. Put shortly: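 Varying compound concentrations were added in PBS with 0.5% BSA for 1 h. Signal was read with excitation at 680 nm and emission at 570 nm. A biotinylated His6 peptide served as an interference counter-control. IC50 came from a sigmoidal fit.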

Molecules are shown by their SMILES.

Consider `CC(C)(C)c1ccc(-c2cc(CNCC3CCNCC3)sc2-c2ccc(C(C)(C)C)cc2)cc1`, for which the inhibition result was “Dose-dependent effect”.
